# Laboratory results reported in BindingDB's records for doi:10.1016/j.bmcl.2018.01.030 (Osaka University, 2018).
# Experiment: Binding affinity to 14-3-3zeta (unknown origin) assessed as stabilization of protein-protein interaction between 14-3-3zeta and fluorescein-labeled phosphopeptide by measuring Kd of FAM-KRSHpSV-COOH at 40 uM by fluorescence polarization assay (Rvb = 470 +/- 20 nM)
row,Compound,Kd
1,COC[C@H]1O[C@H](O[C@@H]2C3=C(C(C)C)CC[C@]3(C)/C=C3\[C@@H](CC[C@]3(O)COC)[C@@H](C)[C@H]2O)[C@H](O)[C@H]2O[C@H]3O[C@]21O[C@@]3(C)[C@@H]1CO1,9 nM
2,COC[C@H]1CC[C@@H]2/C1=C\[C@@]1(C)CCC(C(C)C)=C1[C@@H](O[C@H]1O[C@@H]3COC(C)(C)O[C@H]3[C@H](O)[C@H]1O)[C@H](O)[C@@H]2C,18 nM
3,COC[C@@]1(OC)CC[C@@H]2/C1=C\[C@@]1(C)CCC(C(C)C)=C1[C@@H](O[C@H]1O[C@@H]3COC(C)(C)O[C@H]3[C@H](O)[C@H]1O)[C@H](O)[C@@H]2C,360 nM
